Source: PMC3031881, “Amyloid precursor protein selective gamma-secretase inhibitors for treatment of Alzheimer's disease” (Alzheimer's Research & Therapy, 2010)

Tested on: Notch signaling in SNC cells (rat NotchΔE, CBF-Luciferase)
Assay: SNC dual cell assay, Notch signaling luciferase reporter
Conditions: ratio of cellular Notch signaling and Aβ EC50

Structure (SMILES): CC(C)C[C@H](NC(=O)[C@H](Cc1ccccc1)C[C@@H](O)[C@H](Cc1ccccc1)NC(=O)OC(C)(C)C)C(=O)N[C@@H](Cc1ccccc1)C(N)=O [L-685,458, tert-Butyl (2S,3R,5R)-6-((S)-1-((S)-1-amino-1-oxo-3-phenylpropan-2-ylamino)-4-methyl-1-oxopentan-2-ylamino)-5-benzyl-3-hydroxy-6-oxo-1-phenylhexan-2-ylcarbamate]
- Cellular Selectivity (APP/Notch): 14
